The structures appear in SMILES notation.

This passage reports Relative potency results from ChEMBL document CHEMBL1126282, “Synthesis and conformational properties of the lanthionine-bridged opioid peptide [D-AlaL2,AlaL5]enkephalin as determined by NMR and computer simulations” (J Med Chem, 1992).

Assay [1] is filed under the species Cavia porcellus. Nature of the assay: Potency to inhibit electrically induced contraction of guinea pig ileum(GPI) relative to [Leu5]-enkephalin.
For assay [2], the species on record is Mus musculus. The assay can be described thus: Potency to inhibit electrically induced contraction of mouse vas deferens(MVD) relative to [Leu5]-enkephalin.

Regarding `CC(C)C[C@H](NC(=O)[C@H](Cc1ccccc1)NC(=O)CNC(=O)CNC(=O)[C@@H](N)Cc1ccc(O)cc1)C(=O)O` [ENKEPHALIN], the Relative potency in assay [1] and in assay [2] was 1 throughout.
